# Assay results published in US20090325202A1, “Methods for Developing and Assessing Therapeutic Agents” (priority 2006, published 2009).
# Test system: EGFR
# Assay: In vivo tumor FNAB Western blot, EGFR phosphorylation (Example 5)
# Conditions: tumor samples of treated animals compared to control
smiles,measurement,value
"COc1cc2ncnc(Nc3ccc(F)c(Cl)c3)c2cc1OCCCN1CCOCC1 [gefitinib, Gefitinib]",EGFR phosphorylation in vivo,completely abolished
